Assay results reported in paper PMC9102066, “Cloning and Functional Characterization of Dog OCT1 and OCT2: Another Step in Exploring Species Differences in Organic Cation Transporters” (International Journal of Molecular Sciences, 2022).

How the values were obtained:
human OCT1 = molecular target: T1, human OCT1 (Homo sapiens, UniProt O15245); assay: Uptake in HEK293 cells stably overexpressing human OCT1; format: in vitro ADME
T1 construct: expressed in transfected cells; host or cells: HEK293 (Flp-In system)
T1 sequence (O15245 1-554): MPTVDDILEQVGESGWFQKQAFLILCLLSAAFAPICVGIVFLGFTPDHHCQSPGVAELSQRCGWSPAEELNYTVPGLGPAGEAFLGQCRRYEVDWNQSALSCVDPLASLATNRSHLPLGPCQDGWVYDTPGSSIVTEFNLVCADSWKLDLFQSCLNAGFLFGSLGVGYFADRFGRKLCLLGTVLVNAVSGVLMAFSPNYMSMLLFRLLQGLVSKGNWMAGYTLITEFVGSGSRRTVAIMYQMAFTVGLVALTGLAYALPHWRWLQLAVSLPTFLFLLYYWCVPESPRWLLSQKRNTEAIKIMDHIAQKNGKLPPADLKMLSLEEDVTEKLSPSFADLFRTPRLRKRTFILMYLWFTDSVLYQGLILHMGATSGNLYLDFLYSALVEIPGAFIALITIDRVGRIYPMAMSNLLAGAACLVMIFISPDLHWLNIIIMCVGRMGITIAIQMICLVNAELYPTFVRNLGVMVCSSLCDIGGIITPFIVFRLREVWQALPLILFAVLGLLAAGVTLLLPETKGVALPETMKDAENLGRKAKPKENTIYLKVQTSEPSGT

mouse OCT1 = molecular target: T2, mouse OCT1 (Mus musculus, UniProt O08966); assay: Uptake in HEK293 cells stably overexpressing mouse OCT1; format: in vitro ADME; conditions: OCT1-mediated uptake, HEK293, 2 min, 37 °C, pH 7.4, control cells subtracted
T2 construct: expressed in transfected cells; host or cells: HEK293 (Flp-In system)
T2 sequence (O08966 1-556): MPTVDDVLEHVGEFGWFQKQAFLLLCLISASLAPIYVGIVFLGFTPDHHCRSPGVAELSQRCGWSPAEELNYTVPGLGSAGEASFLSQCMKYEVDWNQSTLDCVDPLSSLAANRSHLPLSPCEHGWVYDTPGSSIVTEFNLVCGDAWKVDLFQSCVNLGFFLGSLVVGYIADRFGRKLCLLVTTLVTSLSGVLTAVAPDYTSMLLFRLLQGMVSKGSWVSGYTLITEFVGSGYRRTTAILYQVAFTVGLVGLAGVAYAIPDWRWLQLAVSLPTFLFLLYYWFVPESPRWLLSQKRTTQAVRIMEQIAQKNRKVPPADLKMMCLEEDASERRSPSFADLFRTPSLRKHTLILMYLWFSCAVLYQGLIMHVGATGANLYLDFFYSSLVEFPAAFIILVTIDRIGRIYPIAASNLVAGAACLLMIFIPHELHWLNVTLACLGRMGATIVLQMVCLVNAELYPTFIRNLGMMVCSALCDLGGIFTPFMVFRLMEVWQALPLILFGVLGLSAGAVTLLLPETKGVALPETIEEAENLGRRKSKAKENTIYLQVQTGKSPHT

dog OCT2 = assay: Uptake in HEK293 cells stably overexpressing dog OCT2; format: in vitro ADME
human OCT2 = molecular target: T3, human OCT2 (Homo sapiens, UniProt O15244); assay: Uptake in HEK293 cells stably overexpressing human OCT2; format: in vitro ADME; conditions: OCT2-mediated uptake, HEK293, 2 min, 37 °C, pH 7.4, control cells subtracted
T3 construct: expressed in transfected cells; host or cells: HEK293 (Flp-In system)
T3 sequence (O15244 1-555): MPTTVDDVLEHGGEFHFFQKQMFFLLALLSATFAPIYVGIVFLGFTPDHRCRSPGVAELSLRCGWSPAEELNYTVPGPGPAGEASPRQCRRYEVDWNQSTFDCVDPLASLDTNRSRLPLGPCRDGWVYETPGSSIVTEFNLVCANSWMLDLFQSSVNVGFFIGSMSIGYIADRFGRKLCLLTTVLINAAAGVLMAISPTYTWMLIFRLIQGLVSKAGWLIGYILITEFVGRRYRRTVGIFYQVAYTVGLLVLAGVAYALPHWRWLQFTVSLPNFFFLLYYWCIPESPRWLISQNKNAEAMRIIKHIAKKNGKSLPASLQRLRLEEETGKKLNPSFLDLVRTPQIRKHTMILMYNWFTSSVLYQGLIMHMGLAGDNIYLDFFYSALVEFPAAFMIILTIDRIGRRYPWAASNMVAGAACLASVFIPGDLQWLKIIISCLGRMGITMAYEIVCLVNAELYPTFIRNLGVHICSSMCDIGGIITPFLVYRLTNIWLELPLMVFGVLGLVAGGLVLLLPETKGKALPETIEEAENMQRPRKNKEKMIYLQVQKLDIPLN

dog OCT1 = assay: Uptake in HEK293 cells stably overexpressing dog OCT1; conditions: for difference in transport between dog and mouse OCT1, in words: dog OCT1 versus mouse OCT1
[1] = estimated from differences measured in vitro; cited from earlier work
[2] = OCT1-mediated uptake, HEK293, 2 min, 37 °C, pH 7.4, control cells subtracted

Row | CLint ± SEM, hOCT1 (human OCT1; intrinsic clearance = vmax divided by KM for each experiment) | Compound | vmax ± SEM, hOCT1 (human OCT1; [2]) | fold lower transport capacity (human OCT1 relative to dog OCT1, as worded in the discussion) (human OCT1; discussion wording, direction not spelled out) [fold] | vmax ± SEM, mOCT1 (mouse OCT1) | fold lower transport by dog OCT2 compared to human OCT2 (dog OCT2; dog OCT2 versus human OCT2) [fold] | uptake by dog OCT2 cells compared to control cells, in words (dog OCT2; especially at low concentrations, data could not be fitted to the Michaelis–Menten equation) | vmax ± SEM, hOCT2 (human OCT2) | vmax ± SEM, dOCT1 (dog OCT1; [2]) | fold higher transport capacity (vmax) by dog OCT1 than human OCT1 (dog OCT1; dog OCT1 versus human OCT1) [fold] | difference in transport between dog and mouse OCT1, in words (dog OCT1) | estimated concentration in mouse liver, fold higher than in human liver [1] | fold higher affinity by dog OCT1 than human OCT1 (dog OCT1; dog OCT1 versus human OCT1) [fold]
1 |  | CC(Cc1ccc(O)cc1)NCC(O)c1cc(O)cc(O)c1 (stereo not shown) [Fenoterol, Fenoterol hydrochloride] | 106 ± 11.8 pmol × min^−1 × mg Protein^−1 | 12.9 | 912 ± 78.3 pmol × min^−1 × mg Protein^−1 | 10 | only a slight increase | 248 ± 21.7 pmol × min^−1 × mg Protein^−1 | 1346 ± 134 pmol × min^−1 × mg Protein^−1 | 12.9 | did not differ substantially |  | 
2 | 11.0 ± 2.05 µL × min^−1 × mg Protein^−1 | CN(C)C(=N)N=C(N)N [Metformin, metformin hydrochloride] |  |  |  |  |  |  |  |  | did not differ substantially | up to 11 fold | 5.5

Structures can show the parent of a compound that is named as a salt.
